# Assay results taken from patent US20060257934A1 (priority 2005, published 2006).
# The chains behind the UniProt entries cited, without tags or fusion partners. Residues count along the entry.
# UniProt P18508, 39-466: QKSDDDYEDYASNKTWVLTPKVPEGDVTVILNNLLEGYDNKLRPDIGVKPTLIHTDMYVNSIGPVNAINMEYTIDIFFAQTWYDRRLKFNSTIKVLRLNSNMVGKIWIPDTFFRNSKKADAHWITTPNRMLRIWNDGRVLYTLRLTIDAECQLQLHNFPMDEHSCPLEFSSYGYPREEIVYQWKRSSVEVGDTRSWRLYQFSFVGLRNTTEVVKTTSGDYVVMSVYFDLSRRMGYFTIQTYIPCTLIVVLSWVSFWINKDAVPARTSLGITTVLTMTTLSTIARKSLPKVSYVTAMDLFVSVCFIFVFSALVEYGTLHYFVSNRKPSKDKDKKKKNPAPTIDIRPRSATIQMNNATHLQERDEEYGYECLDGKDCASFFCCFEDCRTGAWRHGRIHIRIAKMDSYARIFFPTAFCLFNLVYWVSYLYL
# UniProt P62813, 28-455: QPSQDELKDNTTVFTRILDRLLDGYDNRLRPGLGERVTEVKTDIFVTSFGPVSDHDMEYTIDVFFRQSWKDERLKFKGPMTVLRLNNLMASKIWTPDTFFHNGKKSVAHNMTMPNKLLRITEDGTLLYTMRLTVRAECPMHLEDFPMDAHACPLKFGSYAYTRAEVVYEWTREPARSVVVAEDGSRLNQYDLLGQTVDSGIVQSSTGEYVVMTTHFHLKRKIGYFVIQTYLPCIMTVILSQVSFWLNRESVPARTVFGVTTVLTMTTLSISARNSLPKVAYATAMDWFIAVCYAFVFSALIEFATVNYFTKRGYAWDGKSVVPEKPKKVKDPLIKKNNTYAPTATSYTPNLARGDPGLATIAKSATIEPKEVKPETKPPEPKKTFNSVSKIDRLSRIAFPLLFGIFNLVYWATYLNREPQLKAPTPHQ
# UniProt P63138, 25-474 limits assumed: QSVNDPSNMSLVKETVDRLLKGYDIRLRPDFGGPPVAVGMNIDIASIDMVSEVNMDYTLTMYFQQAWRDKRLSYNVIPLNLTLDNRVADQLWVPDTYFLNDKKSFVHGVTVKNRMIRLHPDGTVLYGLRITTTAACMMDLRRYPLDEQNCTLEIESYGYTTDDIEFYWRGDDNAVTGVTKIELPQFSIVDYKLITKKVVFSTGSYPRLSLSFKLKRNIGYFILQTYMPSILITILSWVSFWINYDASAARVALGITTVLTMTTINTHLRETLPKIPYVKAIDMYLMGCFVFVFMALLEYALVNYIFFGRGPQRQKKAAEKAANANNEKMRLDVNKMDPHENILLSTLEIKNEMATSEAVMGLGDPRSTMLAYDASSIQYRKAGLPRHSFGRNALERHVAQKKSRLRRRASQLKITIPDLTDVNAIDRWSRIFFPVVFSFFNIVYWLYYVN
# Target: T1, GABAA receptor (rat α1β2 γ2) (Rattus norvegicus, UniProt P18508+P62813+P63138)
# T1 construct: expressed in transfected cells
# Experiment: cell-based
# Conditions: read-out: EC50, positive modulation of GABA-induced response
smiles,measurement,value
CC(=O)[C@H]1CC[C@H]2[C@@H]3CC[C@H]4C[C@H](O)CC[C@]4(C)[C@H]3CC[C@]12C [allopregnanolone],EC50,42.5 ± 16.9 nM
